PubChem BioAssay AID504406 (Broad Institute, 2011)
The list shows a part of the results, in another mix than the full data. Some tests of the compounds listed are not included; inactive here does not mean inactive elsewhere. Activity calls are given as the source filed them. No stated cut-off is given here; in the data, active means inhibition above about 10% (passing the limit was not always enough); inconclusive means no clear call, values can overlap the other calls.

Protein sequences, listed by entry. Tags and fused reporters are not part of them.
UniProt P9WIQ1, whole entry: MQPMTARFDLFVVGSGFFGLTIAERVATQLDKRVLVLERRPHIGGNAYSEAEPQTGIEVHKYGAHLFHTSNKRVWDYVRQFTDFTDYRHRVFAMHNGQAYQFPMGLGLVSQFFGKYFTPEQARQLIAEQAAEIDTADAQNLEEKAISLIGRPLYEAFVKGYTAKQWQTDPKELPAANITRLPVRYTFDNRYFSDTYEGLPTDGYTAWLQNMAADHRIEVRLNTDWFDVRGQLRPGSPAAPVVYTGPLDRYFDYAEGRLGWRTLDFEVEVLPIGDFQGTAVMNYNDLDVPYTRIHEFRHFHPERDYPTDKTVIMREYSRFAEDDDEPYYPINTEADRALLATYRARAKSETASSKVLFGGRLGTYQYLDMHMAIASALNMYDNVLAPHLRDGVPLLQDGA

Molecular target: UDP-galactopyranose mutase (Mycobacterium tuberculosis (strain ATCC 25618 / H37Rv)) (UniProt P9WIQ1)
Assay: blockers of Mtb UDP-galactopyranose mutase – biochemical, fluorescence polarization, single point, primary screen (AID 504406)
Details: purified UGM, fluorescence polarization probe displacement; at 10 µM; hits give high values

Structure (SMILES) | inhibition
C=CCN1CCN(CCOC(=O)C(O)(c2ccccc2)c2ccccc2)CC1 | inactive: 0.73%
O=C(NCC1(N2CCCCC2)CCCCC1)c1cc(F)c(F)cc1Cl | inactive: -1.52%
Cc1cc(C(=O)NCC2(N3CCCCC3)CCCCC2)ccc1[N+](=O)[O-] | inactive: 1.16%
CCN1CCCC(OC(=O)C2(O)c3ccccc3C=Cc3ccccc32)C1 (centres undefined) | inactive: -1.12%
O=C(NCC1(N2CCCCC2)CCCCC1)c1cccc(Br)c1 | inactive: -2.75%
COc1ccc(C(=O)NCC2(N(C)C)CCCCC2)cc1 | inactive: 1.2%
Cc1ccccc1C(=O)NCC1(N2CCCCC2)CCCCC1 | inactive: 0.302%
CN(C)C1CCCC1OC(=O)C(O)(c1ccccc1)c1ccccc1 (centres undefined) | inactive: -0.524%
CN(C)c1ccc(C(=O)NCC2(N(C)C)CCCCC2)cc1 | inactive: 1.1%
CC(C)N1C(=O)CC2(CCN(CCOC(=O)C(O)(c3ccccc3)c3ccccc3)CC2)C1=O | inactive: -0.195%
CCN(CC)CC(C)C(C)OC(=O)C(O)(c1ccccc1)c1ccccc1 (centres undefined) | inactive: 1.42%
COc1cc(SC)ccc1C(=O)NCC1(N(C)C)CCCCC1 | inactive: -1.53%
Cc1ccc(C(=O)NCC2(N3CCCCC3)CCCCC2)cc1 | inactive: -1.13%
O=C(NCC1(N2CCCCC2)CCCCC1)c1cc([N+](=O)[O-])ccc1Cl | inactive: -2.5%
CN1[C@@H]2CC[C@H]1CC(OC(=O)C(O)(c1ccccc1)c1ccccc1)C2 (some centres undefined) | inactive: -0.394%
COc1ccc(Br)c(C(=O)NCC2(N3CCCCC3)CCCCC2)c1 | inactive: -2.58%
CN(C)c1cccc(C(=O)NCC2(N(C)C)CCCCC2)c1 | inactive: 4.75%
CC(C)Oc1ccc(C(=O)NCC2(N(C)C)CCCCC2)cc1 | inactive: 4.02%
O=C(OC1CN2CCC1CC2)C(CO)(c1ccccc1)c1ccccc1 (centres undefined) | inactive: 0.435%
COc1cccc(C(=O)NCC2(N3CCCCC3)CCCCC2)c1 | inactive: -0.276%
COc1ccc(Cl)cc1C(=O)NCC1(N(C)C)CCCCC1 | inactive: -1.34%
O=C(NCC1(N2CCCCC2)CCCCC1)c1cccc(Cl)c1 | inactive: -0.688%
CN(C)C1(CNC(=O)c2ccc(Br)cc2)CCCCC1 | inactive: -1.16%
COc1cc(C(=O)NCC2(N(C)C)CCCCC2)c([N+](=O)[O-])cc1OC | inactive: -3.6%
